# Apparent affinities of Ab-14 variants for a coronavirus HR2 peptide

Antigen: PDVDLGDISGINAS, a 14-residue peptide of the SARS-CoV-2 spike HR2 region.

Parent scFv Ab-14: VH joined to VL by the linker GGGGSGGGGSGGGGS. Changes lie in the heavy chain CDRs alone.
VH: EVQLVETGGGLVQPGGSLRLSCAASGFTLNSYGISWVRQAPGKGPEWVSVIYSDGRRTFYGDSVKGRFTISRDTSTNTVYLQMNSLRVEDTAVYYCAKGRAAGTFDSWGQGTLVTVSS
VL: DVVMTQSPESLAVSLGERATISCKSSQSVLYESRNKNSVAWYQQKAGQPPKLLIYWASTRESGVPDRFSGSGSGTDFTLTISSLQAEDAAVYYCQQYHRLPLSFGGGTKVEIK

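The parent was found by panning a naive human phage display library on the peptide. Designed CDR sequences, proposed from the first random library and measured here. Several design methods are mixed in this list. The assay is AlphaSeq: two haploid yeast populations carry antibody and antigen on their surface. Mating (16 h, 30 °C) was followed by selection of diploids and sequencing of their barcodes. Each replicate has its own calibration line, from reference interactions of the BCL2 family. The assay was run in six technical replicates.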

Variants are written as CDR1, CDR2 and CDR3 of the heavy chain (limits as in the source). Parent: GFTLNSYGIS, VIYSDGRRTFYGDSVK, GRAAGTFDS. Scale: log10 of Kd in nM, estimated from mating counts; low values are strong binders. A mean of the replicates is given; it leaves out those without a signal. "nd" means that the variant was in the library but no mating with the target was seen in any replicate; the authors take this as a sign of poor binding, and no number exists. Order: sorted from the lowest average up, undetected variants last. In the paper, a design with two or fewer of six values counts as a poor binder. Background: pairings of all heavy chain designs with three empty control strains gave a value in 1% of cases (median 2.08, 5th percentile 0.84). Values in that range, when seen in few replicates, are hard to tell from nonspecific mating. Of ten entries with the parent sequence, four were seen in most replicates (averages 0.34 to 2.37), three in one and three in none, so single entries are noisy. A sequence measured in both rounds can read differently, since the two assays cover different ranges.

GFDLDEYGIS / VIYADGRRTFYQDSVK / GNVAGTFDS: -1.04 (6 of 6 replicates).
GFDLNEYGIS / VIYADGRRTFYSDSVK / GANAGTFDQ: -1.01 (6 of 6 replicates).
GFDLNEYGIS / VIYADGRRTQYIDSVK / GEIAGTFDK: -0.53 (6 of 6 replicates).
GFDLNEYGIS / VIYADGMRTAYTDDVK / GNVAGTFDT: -0.42 (6 of 6 replicates).
GFDLNEYGIS / VIYADGKRTAYVDSVK / GNQAGTFDI: -0.38 (6 of 6 replicates).
GFDLNEYGIS / VIYADGMRTAYADDVK / GEQAGTFDV: -0.33 (6 of 6 replicates).
GFQLNEYGIS / VIYSDGRRTFYDDSVK / GRTAGTFDS: -0.26 (6 of 6 replicates).
GFTLDEYGIS / VIYADGRRTAYSDSVK / GSTAGTFDV: -0.26 (6 of 6 replicates).
GFNLNEYGIS / VIYADGRRTFYADSVK / GGWAGTFDV: -0.17 (6 of 6 replicates).
GFDLNEYGIS / VIYADGKRTAYTDSVK / GEVAGTFDI: -0.11 (6 of 6 replicates).
GFDLNEYGIS / VIYADGVRTAYADSVK / GENAGTFDL: -0.06 (3 of 6 replicates).
GFDLNEYGIS / VIYADGSRTAYADDVK / GENAGTFDQ: -0.05 (6 of 6 replicates).
GFTLNEYGIS / VIYSDGRRTFYTDSVK / GRQAGTFDS: -0.04 (6 of 6 replicates).
GFNLNEYGIS / VIYADGRRTFYTDDVK / GEEAGTFDL: -0.01 (6 of 6 replicates).
GFTLNEYGIS / VIYSDGRRTFYDDSVK / GRMAGTFDS: 0.01 (6 of 6 replicates).
GFDLNEYGIS / VIYADGKRTQYIDSVK / GNVAGTFDS: 0.03 (6 of 6 replicates).
GFTLNSYGIS / VIYSDGKRTFYSDRVK / GEAAGTFDT: 0.04 (6 of 6 replicates).
GFDLEDYGIS / VIYADGRRTQYADSVK / GEIAGTFDL: 0.07 (6 of 6 replicates).
GFDLNEYGIS / VIYADGVRTAYADDVK / GNTAGTFDQ: 0.09 (6 of 6 replicates).
GFDLNSYGIS / VIYSDGRRTFYGDSVK / GQEAGTFDQ: 0.13 (6 of 6 replicates).
GFSLNSYGIS / VIYSDGKRTFYGDNVK / GRTAGTFDS: 0.24 (6 of 6 replicates).
GFTLNEYGIS / VIYSDGRRTFYTDSVK / GRLAGTFDS: 0.41 (6 of 6 replicates).

Second part, the sequence after the result:

Read-out 0.51 (6 of 6 replicates), from GFSLNSYGIS / VIYSDGRRTFYADSVK / GKIAGTFDS.
Read-out 0.94 (6 of 6 replicates), from GFTLNEYGIS / VIYSDGRRTFYGDSVK / GREAGTFDM.
Read-out 1.00 (6 of 6 replicates), from KFDLNSYGIS / VIYSDGRRTFYGDSVK / GKIAGTFDS.
Read-out 1.08 (6 of 6 replicates), from GFELNMYGIS / VIYSDGRRTFYGDSVK / GEAAGTFDS.
Read-out 1.22 (1 of 6 replicates), from GFGLNEYGIS / VIYSDGRRTFYMDSVK / GRTAGTFDS.
Read-out 1.59 (5 of 6 replicates), from GFDLNSYGIS / VIYSDGRRTFYQDSVK / GRTAGTFDA.
Read-out 1.72 (4 of 6 replicates), from GFDLNSYGIS / VIYSDGRRTFYGDSVK / GRKAGTFDS.
Read-out 1.74 (1 of 6 replicates), from GFDLNEYGIS / VIYADGRRTAYADSVK / GGVAGTFDV.
Read-out 1.76 (3 of 6 replicates), from KFDLNSYGIS / VIYSDGRRTFYGDSVK / GNAAGTFDS.
Read-out 2.13 (1 of 6 replicates), from GDKLEDYGIS / VIYADGRRSAYVDNVK / GEYAGYFNV.
Read-out 2.37 (6 of 6 replicates), from GFTLNSYGIS / VIYSDGRRTFYSDSVK / GMAGGTFDS.
Read-out nd (0 of 6 replicates), from GFTLNEYGIS / VIYSDGRRTFYSDSVK / CEAAGTFDS.
Read-out nd (0 of 6 replicates), from GKDIQEYGIS / VIYADGERVAYTNSVK / GTQSGSNIN.
Read-out nd (0 of 6 replicates), from GFNLNEYGIS / VIYADGQRTKYIDDVK / GTNRVLGMG.
Read-out nd (0 of 6 replicates), from GFHLNSYGIS / VIYSDGRRTFYSDSVK / GRAACTFDS.
Read-out nd (0 of 6 replicates), from GFTLNEYGIS / VIYSDGRRTFYGDSVK / GRAMKTFEQ.
Read-out nd (0 of 6 replicates), from GFDLNEYGIS / VIYADGRRTFYIDSVK / GESAGTFDQ.
Read-out nd (0 of 6 replicates), from GFSLNSYGIS / VIYSDGRRTFYGDSVK / RRAAGTFDS.
Read-out nd (0 of 6 replicates), from GFDVEEYGIS / VIYADGRRSSYSQSVK / GHYSGTIYV.
Read-out nd (0 of 6 replicates), from GEDLQEYGIS / VIYADGLRTAYSDNFK / GHLGGQFDH.
Read-out nd (0 of 6 replicates), from GFSFDEYGIS / VIYADGKRSFYADTVK / GNKDMAFDI.
Read-out nd (0 of 6 replicates), from GFQLNDYGIS / VIYSDGRRTFYIDEVK / GKAAGTFDS.

The first 4 entries again:

CDR-H1,CDR-H2,CDR-H3,"mean, log10 nM",replicates with signal
GFDLDEYGIS,VIYADGRRTFYQDSVK,GNVAGTFDS,-1.04,6 of 6
GFDLNEYGIS,VIYADGRRTFYSDSVK,GANAGTFDQ,-1.01,6 of 6
GFDLNEYGIS,VIYADGRRTQYIDSVK,GEIAGTFDK,-0.53,6 of 6
GFDLNEYGIS,VIYADGMRTAYTDDVK,GNVAGTFDT,-0.42,6 of 6

Reference: Li et al. 2023, doi:10.1038/s41467-023-39022-2. File: FLAb, binding data.